# Values of other authors as cited in US20030022247A1, “Substance which inhibits binding of information transfer molecule for 1175-tyrosine phosphorylated KDR/FLK-1 and usages of the same” (priority 2000, published 2003).
# Amino acid sequences for entries named in this document (tags omitted). Residues count along the entry.
# UniProt P35968, 20-1356: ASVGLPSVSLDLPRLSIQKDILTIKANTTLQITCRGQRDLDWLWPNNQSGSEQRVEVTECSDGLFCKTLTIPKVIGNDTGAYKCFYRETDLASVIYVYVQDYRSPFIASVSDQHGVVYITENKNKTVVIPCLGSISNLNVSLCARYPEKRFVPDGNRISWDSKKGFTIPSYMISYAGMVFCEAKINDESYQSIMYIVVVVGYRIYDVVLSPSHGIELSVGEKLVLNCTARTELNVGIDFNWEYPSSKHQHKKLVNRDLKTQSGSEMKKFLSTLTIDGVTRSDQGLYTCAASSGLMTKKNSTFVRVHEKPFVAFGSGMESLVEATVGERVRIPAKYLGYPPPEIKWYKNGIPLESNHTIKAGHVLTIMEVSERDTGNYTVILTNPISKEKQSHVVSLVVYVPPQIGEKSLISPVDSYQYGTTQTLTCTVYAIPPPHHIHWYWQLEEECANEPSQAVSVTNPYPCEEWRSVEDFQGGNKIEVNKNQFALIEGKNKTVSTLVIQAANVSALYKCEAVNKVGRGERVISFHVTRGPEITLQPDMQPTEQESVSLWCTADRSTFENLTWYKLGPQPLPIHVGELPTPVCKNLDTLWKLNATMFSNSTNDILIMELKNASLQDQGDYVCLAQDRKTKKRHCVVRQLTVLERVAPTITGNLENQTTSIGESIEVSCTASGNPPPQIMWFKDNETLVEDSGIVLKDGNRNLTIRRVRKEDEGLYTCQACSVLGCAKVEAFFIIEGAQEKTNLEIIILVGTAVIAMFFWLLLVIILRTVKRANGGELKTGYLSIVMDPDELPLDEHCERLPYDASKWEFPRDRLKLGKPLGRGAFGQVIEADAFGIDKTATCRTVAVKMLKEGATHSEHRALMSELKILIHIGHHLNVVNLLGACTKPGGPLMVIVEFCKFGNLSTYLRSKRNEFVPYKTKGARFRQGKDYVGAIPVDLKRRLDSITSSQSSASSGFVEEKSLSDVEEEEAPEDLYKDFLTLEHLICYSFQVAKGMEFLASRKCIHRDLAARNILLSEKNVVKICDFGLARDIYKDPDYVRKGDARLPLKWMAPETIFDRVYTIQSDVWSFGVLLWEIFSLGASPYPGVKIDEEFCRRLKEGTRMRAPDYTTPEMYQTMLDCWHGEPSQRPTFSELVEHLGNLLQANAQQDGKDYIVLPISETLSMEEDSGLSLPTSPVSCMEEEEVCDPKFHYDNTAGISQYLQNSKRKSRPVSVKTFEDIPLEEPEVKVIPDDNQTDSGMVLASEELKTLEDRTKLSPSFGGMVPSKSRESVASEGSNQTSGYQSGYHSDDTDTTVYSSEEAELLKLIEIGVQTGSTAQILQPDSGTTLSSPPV
# Molecular target: KDR/Flk-1 (Homo sapiens, UniProt P35968)
# Details: read-out: KD value; cited from earlier work
substance,measurement,value
vascular endothelial growth factor [VEGF],Kd,0.075 nM
